{"sequences": {"note": "Protein sequences, listed by entry. Tags and fused reporters are not part of them.", "UniProt Q16539, whole entry": "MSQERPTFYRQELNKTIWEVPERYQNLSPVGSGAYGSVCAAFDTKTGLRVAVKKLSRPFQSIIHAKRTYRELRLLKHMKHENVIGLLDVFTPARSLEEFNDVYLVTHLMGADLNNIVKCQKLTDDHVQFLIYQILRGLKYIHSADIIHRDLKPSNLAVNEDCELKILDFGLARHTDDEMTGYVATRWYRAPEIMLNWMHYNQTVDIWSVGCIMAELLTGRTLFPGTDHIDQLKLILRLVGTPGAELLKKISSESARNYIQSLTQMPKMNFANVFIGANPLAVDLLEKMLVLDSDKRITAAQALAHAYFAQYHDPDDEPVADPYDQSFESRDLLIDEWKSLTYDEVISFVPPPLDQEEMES"}, "source": "patent US20120244120A1", "about": "“INHIBITORS OF HEMOPOIETIC CELL KINASE (P59-HCK) AND THEIR USE IN THE TREATMENT OF INFLUENZA INFECTION” (priority 2009, published 2012)", "biological_target": "p38 MAPKα (MAPK14) (Homo sapiens, UniProt Q16539)", "test": "p38α enzyme assay (Z'-LYTE FRET, via MAPKAP-K2 activation)", "type": "biochemical", "conditions": "2 hr pre-incubation, ATP 10 μM", "data": [{"smiles": "CNC(=O)Nc1cnccc1COc1ccc(NC(=O)Nc2cc(C(C)(C)C)nn2-c2ccc(C)cc2)c2ccccc12", "values": [{"measurement": "IC50", "result": 2.1, "unit": "nM"}]}]}
